Data reported in US12630600B2 (MEDIMMUNE LIMITED, priority 2022, dated 2026).

Assay: Pharmacokinetic profiling in mouse (i.v., s.c.)
Conditions: Mouse C57bl/6, 10 nmol/kg, AUC(s.c.)0-inf/AUC(i.v.)0-inf
Excerpt: Selected test peptides (n=8) were profiled for pharmacokinetic (PK) properties in the mouse after single intravenous (i.v.) or subcutaneous (s.c.) dose. A subset (n=4) meeting the acceptance criteria was subsequently profiled in the dog (single i.v. dose) and non-human primate (single i.v. and s.c. dose). […] Low-binding plasticware containers were used during preparation and sample handling to avoid non-specific binding.
After dosing, PK samples were collected from the dorsal metatarsal vein. Blood of each sample was transferred into plastic micro centrifuge tubes containing EDTA-K2, inverted several times for proper mixing of contents and then placed on wet ice. The blood samples were centrifuged at 4° C. to obtain plasma and stored at −75° C. prior to analysis.
Samples analysis: Samples were analyzed by LC-MS/MS. Calibration standards were injected at the beginning and end of each batch and the determined concentration for each prepared standard was used to construct a calibration curve. Plasma and dose aliquot sample concentrations were determined from the plasma calibration curve.
Data analysis: Plasma concentration data was analyzed by non-compartmental analysis (NCA) using Phoenix Winnonlin v. 8.3.3.33. […] Subcutaneous bioavailability was calculated as the ratio AUC(s.c.)0-inf/AUC(i.v.)0-inf. […]

In the case of “H-Aib-Q-G-T-F-T-S-D-V-S-K-αMePhe-L-D-T-K-R-A-R-D-F-V-Q-W-L-L-E-Aib-G-acid [Peptide 195]”, the S.c. bioavailability is reported as 66%.
